Measured values as given in US10550118B2, “JAK inhibitors containing a 4-membered heterocyclic amide” (THERAVANCE BIOPHARMA R&D IP, LLC, priority 2017, dated 2020).

Tested on: IL-13 induced pSTAT6 in lung tissue
Assay: Murine model of IL-13 induced pSTAT6 induction in lung tissue
Conditions: mouse, 1 mg/mL 50 μL oral aspiration; IL-13 challenge 4 h post dose; lungs at 5 hours

SMILES | pSTAT6 inhibition Assay 4
CCCN1Cc2[nH]c(-c3n[nH]c4cc(-c5cc(F)c(O)cc5CC)ccc34)nc2CC1C(=O)N1CC(N(C)C)C1 (centres unmarked) | B (B represents between 40% and 60% inhibition)
CCCN1Cc2[nH]c(-c3n[nH]c4cc(-c5cc(F)c(O)cc5CC)ccc34)nc2C[C@@H]1C(=O)N1CC(N(C)C)C1 | B (B represents between 40% and 60% inhibition)
